From patent US20020055099A1, “SEQUENTIAL CDNA LIBRARY AND USES THEREOF” (priority 1999, published 2002)

How the values were obtained:
[1] = system: HO-1 human melanoma cells; test: SCLA reverse Northern hybridization of arrayed subtracted cDNA library with mRNAs from treated HO-1 cells; type: cell-based; conditions: IFN-β 2000 units/ml, MEZ 10 ng/ml, staurosporine 500 ng/ml, temporally pooled mRNAs
Method: Human HO-1 melanoma cells were grown in Dulbecco's modified Eagle' medium supplemented with 10% fetal calf serum, penicillin/streptomycin (100 U/100 μg/ml) at 37° C. in a 5% CO2 air humidified incubator (Fisher et al., 1985). Cells were refed with fresh growth medium and treated with 2,000 U/ml IFN-β, 10 ng/ml of MEZ in DMSO (final 0.1% DMSO), 2,000 U/ml IFN-β+10 ng/ml MEZ in DMSO (final 0.1% DMSO) or 500 ng/ml staurosporine.
Control and HO-1 cells treated with IFN-β, MEZ or IFN-β+MEZ were harvested at 2, 4, 8, 12, 24 and 48 hrs for RNA extraction. Staurosporine-treated HO-1 cells were harvested at 4, 8 and 24 hrs after treatment. Total RNA was prepared by lysis in 4 M guanidine isothiocyanate followed by ultracentrifugation through CsCl gradients (Sambrook et al., 1989). For temporally spaced cDNA libraries, control and IFN-β+MEZ-treated RNA samples from each time point were pooled and mRNA was purified by oligo (dT)-cellulose column chromatography (Sambrook et al., 1989). Control (DRIVER) and IFN-β+MEZ-treated (TESTER) temporally spaced cDNA libraries were constructed with a λZAP cDNA library kit as described by the manufacturer (Stratagene). A subtracted λZAP cDNA library (IFN-β+MEZ-treated minus control) was constructed as described previously (Jiang and Fisher, 1993).
Both prior to and after amplification, the subtracted cDNA library was plated at ˜500 plaques/15-cm bacterial culture plate to ensure good separation. Each plaque was manually isolated (by toothpick) and transferred to an individual well in a 384-well microtiter plate containing 50 μl SM-1 μl chloroform/well (primary working array) and stored at 4° C. This approach produced a primary un-amplified and a primary amplified working array. Additional secondary and tertiary arrays of the un-amplified and amplified subtracted cDNA library in 384-well plate containing 50 μl SM with 7% DMSO/well was prepared and stored at minus 80° C. for long term storage. After isolation, the remaining phage plaques were harvested from the plate for further applications including amplification. […]

[2] = system: HO-1 human melanoma cells; conditions: HO-1 cells; IFN-β 2000 units/ml, MEZ 10 ng/ml where printed; cited from earlier work

| Molecule | positive clones (DMAC) identified after treatment, of 427 positive clones [1] | effect on HO-1 cell growth [2] | melanin synthesis / differentiation marker [2] | clones induced only by the agent (uniquely positive after a single treatment protocol) [1] |
| --- | --- | --- | --- | --- |
| C=C(C)[C@@]12O[C@@]3(c4ccccc4)O[C@@H]1[C@@H]1[C@@H]4O[C@]4(CO)[C@@H](O)[C@]4(O)C(=O)C(C)=C[C@H]4[C@@]1(O3)[C@H](C)[C@H]2OC(=O)/C=C/C=C/c1ccccc1 [MEZ, mezerein] | 198 clones | – | – | – |
| IFN-β: recombinant human fibroblast interferon, a type I interferon (protein, UniProt P01574 22-187, looked up) Interferon beta: MSYNLLGFLQRSSNFQCQKLLWQLNGRLEYCLKDRMNFDIPEEIKQLQQFQKEDAALTIYEMLQNIFAIFRQDSSSTGWNETIVENLLANVYHQINHLKTVLEEKLEKEDFTRGKLMSSLHLKRYYGRILHYLKAKEYSHCAWTIVRVEILRNFYFINRLTGYLRN | 198 clones | growth suppression | elevation in melanin synthesis | 32 clones |
